What was measured:
[1] = biological target: T1, Baculoviral IAP repeat-containing protein 2 (Homo sapiens, UniProt Q13490); test: Inhibition of N-terminal 6x-His-tagged recombinant human cIAP1-BIR3 (258 to 363 residues) expressed in Escherichia coli incubated for 2 hrs without 6 hrs pre-incubation with enzyme by biotinylated AVPI peptide based DELFIA
[2] = biological target: T1, Baculoviral IAP repeat-containing protein 2; test: Inhibition of N-terminal 6x-His-tagged recombinant human cIAP1-BIR3 (258 to 363 residues) expressed in Escherichia coli incubated for 2 hrs after 6 hrs pre-incubation with enzyme by biotinylated AVPI peptide based DELFIA

Amino acid sequences for entries named in this document (tags omitted).
UniProt Q13490, whole entry: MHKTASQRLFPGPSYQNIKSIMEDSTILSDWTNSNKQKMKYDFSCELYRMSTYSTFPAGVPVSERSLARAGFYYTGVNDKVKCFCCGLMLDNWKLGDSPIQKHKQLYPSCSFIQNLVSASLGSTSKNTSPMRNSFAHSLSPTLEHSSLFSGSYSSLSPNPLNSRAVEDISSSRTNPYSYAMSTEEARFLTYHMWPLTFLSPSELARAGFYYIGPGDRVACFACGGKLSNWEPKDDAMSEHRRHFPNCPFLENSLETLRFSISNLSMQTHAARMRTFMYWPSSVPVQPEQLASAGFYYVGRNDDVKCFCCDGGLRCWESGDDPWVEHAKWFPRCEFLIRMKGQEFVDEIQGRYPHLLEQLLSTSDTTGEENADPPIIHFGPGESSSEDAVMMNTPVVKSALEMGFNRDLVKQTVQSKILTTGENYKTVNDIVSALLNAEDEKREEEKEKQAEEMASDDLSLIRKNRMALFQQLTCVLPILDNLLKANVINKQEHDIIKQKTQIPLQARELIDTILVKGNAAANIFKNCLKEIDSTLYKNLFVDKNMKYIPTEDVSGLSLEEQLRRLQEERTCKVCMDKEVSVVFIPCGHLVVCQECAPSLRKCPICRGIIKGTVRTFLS

| Structure (SMILES) | IC50 [1] | IC50 [2] |
| --- | --- | --- |
| CN[C@@H](C)C(=O)N[C@H](C(=O)N1CCC[C@H]1C(=O)N[C@@H]1CCc2c(OS(=O)(=O)F)cccc21)C1CCCCC1 | 25 nM |  |
| CN[C@@H](C)C(=O)N[C@@H](Cc1ccc(OS(=O)(=O)F)cc1)C(=O)N1CCC[C@H]1C(=O)N[C@@H]1CCc2c(F)cccc21 | 24 nM | 20 nM |
| CN[C@@H](C)C(=O)NC(Cc1cc(C)c(C(F)(F)F)cc1F)C(=O)N1CCC[C@H]1C(=O)N[C@@H]1CCc2c(OS(=O)(=O)F)cccc21 (mixture of isomers) | 50 nM | 15 nM |

From ChEMBL document CHEMBL4414592, “Aryl-fluorosulfate-based Lysine Covalent Pan-Inhibitors of Apoptosis Protein (IAP) Antagonists with Cellular Efficacy” (J Med Chem, 2019)
